Consider one substance from paper PMC10769034, “Aromatic oil from lavender as an atopic dermatitis suppressant” (PLOS ONE, 2024).

In the experiment the test system is CD86 on U937 cells. The experiment in a line: Dendritic cell activation assay (CD86 by flow cytometry, OECD TG442E). The settings on record: 50 µg/mL, Experiment 2, 48 h; control printed for each of three test series.

Several values for one entry are separate records, joined by “and”; a condition that tells them apart may be missing. Equal entries are not always repeated.

With Trinitrobenzenesulfonic acid, the “CD86+ FL1 positivity (%)” value is 29.2% and 35.7% and 47.9%; the “S.I. (%)” value was 342.2% and 266.8% and 399.9%.
